{"source": "patent US20100233194A1", "about": "“TREATMENT OF NEOVASCULAR OCULAR DISEASE STATES” (priority 2007, published 2010)", "test_system": "VEGF-induced retinal vascular leakage", "assay": "VEGF-induced vascular leakage in a rabbit model of blood-retinal barrier breakdown (ocular fluorophotometry)", "conditions": "TA 135 μg, single intravitreal injection Day 0, 500 ng rhVEGF165 Day 5, fluorophotometry Day 7", "data": [{"compound": "CC1(C)O[C@@H]2C[C@H]3[C@@H]4CCC5=CC(=O)C=C[C@]5(C)[C@@]4(F)[C@@H](O)C[C@]3(C)[C@]2(C(=O)CO)O1", "note": "[TA, triamcinolone acetonide]", "values": [{"measurement": "Inhibition of retinal vascular leakage", "result": 27, "unit": "%"}]}]}
